Data from ChEMBL document CHEMBL2010689 (J Med Chem, 2012).

Protein sequences, listed by entry. Tags and fused reporters are not part of them. Lines headed by an entry give the natural chain unless they say otherwise; changes in a name come on top.
UniProt Q02763: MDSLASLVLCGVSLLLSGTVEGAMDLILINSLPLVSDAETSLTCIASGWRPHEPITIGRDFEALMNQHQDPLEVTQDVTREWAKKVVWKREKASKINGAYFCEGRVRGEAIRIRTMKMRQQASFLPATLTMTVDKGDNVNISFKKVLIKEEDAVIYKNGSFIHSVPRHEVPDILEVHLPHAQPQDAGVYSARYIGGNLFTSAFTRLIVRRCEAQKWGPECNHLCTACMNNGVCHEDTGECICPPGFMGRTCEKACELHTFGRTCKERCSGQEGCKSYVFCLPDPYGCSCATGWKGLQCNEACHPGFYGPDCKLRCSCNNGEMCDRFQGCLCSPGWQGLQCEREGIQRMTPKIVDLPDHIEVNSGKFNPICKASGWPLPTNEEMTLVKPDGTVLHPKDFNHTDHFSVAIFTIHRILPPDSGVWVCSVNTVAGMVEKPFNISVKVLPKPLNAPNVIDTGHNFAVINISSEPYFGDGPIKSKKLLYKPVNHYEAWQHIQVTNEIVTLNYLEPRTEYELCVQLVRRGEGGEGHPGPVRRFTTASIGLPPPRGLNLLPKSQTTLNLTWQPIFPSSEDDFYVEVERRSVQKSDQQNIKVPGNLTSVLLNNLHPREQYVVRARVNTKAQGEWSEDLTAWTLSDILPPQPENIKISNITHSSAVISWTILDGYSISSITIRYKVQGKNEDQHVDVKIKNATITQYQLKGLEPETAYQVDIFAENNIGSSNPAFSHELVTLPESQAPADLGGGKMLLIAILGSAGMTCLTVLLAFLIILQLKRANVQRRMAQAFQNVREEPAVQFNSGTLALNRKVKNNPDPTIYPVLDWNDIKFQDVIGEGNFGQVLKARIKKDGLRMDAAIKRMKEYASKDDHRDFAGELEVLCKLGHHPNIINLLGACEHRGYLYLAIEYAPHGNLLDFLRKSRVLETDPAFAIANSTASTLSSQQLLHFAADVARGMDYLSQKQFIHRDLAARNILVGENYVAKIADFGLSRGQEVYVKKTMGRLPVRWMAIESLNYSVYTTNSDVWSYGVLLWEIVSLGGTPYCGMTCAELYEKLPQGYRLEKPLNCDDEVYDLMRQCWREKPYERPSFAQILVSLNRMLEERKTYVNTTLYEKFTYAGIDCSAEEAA

Legend:
[1] = molecular target: T1, Angiopoietin-1 receptor (Homo sapiens, UniProt Q02763)
[2] = molecular target: T1, Angiopoietin-1 receptor; experiment: Inhibition of human Tie2 expressed in porcine PAE145 cells cotransfected with chimeric rat TRK-A/KDR receptor after 1 hr by immunofluorescence assay; assay type: cell-based

For `CC(C)Cn1c2ccc(Nc3ncccn3)cc2c2c3c(c4c(c21)CCc1nn(C)cc1-4)C(=O)NC3` [CEP-11981], the pIC50 [1] was 7.66 and the pIC50 [2] was 7.30.

pIC50: −log10 of the molar value.
